Experimental findings from PubChem BioAssay AID1918969 (ICCB-Longwood Screening Facility, Harvard Medical School, 2023) are described below.

As usually defined, the inhibition is the relative decrease from the control value, in per cent.

Several values for one entry are separate records, joined by “and”; a condition that tells them apart may be missing. Identical values can stand only once. The entries are a selection whose mix differs from that of the whole data set. Activity calls are given as the source filed them. No stated cut-off is given here; in the data, active means inhibition above about 27% (passing the limit was not always enough); inactive means the rest.

The assay has as its system HCMV UL50-UL53 nuclear egress complex (human cytomegalovirus). The assay can be described thus: HCMV nuclear egress complex disruptors – biochemical, HTRF (AID 1918969). To be noted: HTRF UL50-UL53 interaction, normalized percent inhibition; stronger effect = higher value; concentration not given here.
As to `CN(CCCl)CCCl`, the inhibition is inactive: 21% and inactive: 2%.
